This is an account of results in PubChem BioAssay AID952 (NMMLSC, 2007).

Chains of the proteins cited; added tags and fusions are not shown. Lines headed by an entry give the natural chain unless they say otherwise; changes in a name come on top.
UniProt Q92843: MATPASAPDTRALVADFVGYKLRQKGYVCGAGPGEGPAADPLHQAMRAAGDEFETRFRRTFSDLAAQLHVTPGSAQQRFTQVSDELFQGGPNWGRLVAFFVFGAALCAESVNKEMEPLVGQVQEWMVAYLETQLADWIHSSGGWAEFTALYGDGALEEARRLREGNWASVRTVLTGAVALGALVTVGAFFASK

The term inhibition denotes the drop in the measured response relative to a control, in per cent.

Molecules are shown by their SMILES. The entries are a selection whose mix differs from that of the whole data set. Activity calls are given as the source filed them. Rule as the data show it: active = inhibition above about 40%.

For this assay, the target named is Bcl-2-like protein 2 (Homo sapiens) (UniProt Q92843). The assay can be described thus: inhibitors of Bim binding to Bcl-W, primary screen, biochemical, multiplexed, bead-based flow cytometry (AID 952).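 Also: 0% = bound tracer without compound and 100% = peptide blocker; higher means less fluorescent Bim peptide bound to Bcl-W beads.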 To be noted: Bim peptide-Bcl-W binding, at 10 µM, stronger effect = higher value.
As to `COc1ccc(N/C(=N/P(=O)(N2CCOCC2)N2CCOCC2)N2CCOCC2)cc1`, the inhibition was inactive: -3%.

On to `COc1ccc2nc(NP(=O)(c3ccccc3)c3ccccc3)sc2c1`, for which the inhibition was inactive: -1%.

For the molecule `O=C(OC1CN2CCC1CC2)C12CC3CC(CC(C3)C1)C2` (centres undefined), the inhibition is inactive: -1%.

As to `Cc1cc(=O)[nH]c(N[N+](=O)[O-])n1`, the inhibition is inactive: -2%.

With `Cc1c2c(nc3ccccc13)SC(C(Cl)Cl)C2` (centres undefined), the inhibition is inactive: -4%.

On to `CC(C)NC(=O)NP(=O)(Oc1ccccc1)Oc1ccccc1`, for which the inhibition is inactive: -3%.

Take `CCN(CC)C(=S)SC(NC=O)C(Cl)(Cl)Cl` (centres undefined): the inhibition is inactive: -1%.

Regarding `O=[N+]([O-])c1cc([N+](=O)[O-])c(-c2ccn[nH]2)s1`, the inhibition is inactive: -2%.

With `ClCCSc1nnc(-c2cccnc2)o1`, the inhibition was inactive: -6%.

Take `Cc1ccc2nc3c(c(C)c2c1)CC(C(Cl)Cl)S3` (centres undefined): the inhibition is inactive: -4%.

As to `O=P(Nc1ccccn1)(c1cccc2ccccc12)c1cccc2ccccc12`, the inhibition was inactive: -2%.

For `Cc1cc(SC(NC=O)C(Cl)(Cl)Cl)ncn1` (centres undefined), the inhibition was inactive: -3%.

In the case of `Cc1cc(SC(NC(=O)c2ccccc2)C(Cl)(Cl)Cl)nc(C(C)C)n1` (centres undefined), the inhibition was inactive: -2%.

Regarding `CCC(C)N(CC(C)C)C(=S)SC(NC(C)=O)C(Cl)(Cl)Cl` (centres undefined), the inhibition was inactive: 2%.

Regarding `O=C(COc1ccccc1)OC1CN2CCC1CC2` (centres undefined), the inhibition was inactive: 0%.

On to `COP1(=S)c2c(C)nn(CCC#N)c2N=C(c2ccc(F)cc2)N1C` (centres undefined), for which the inhibition is inactive: 0%.

Take `CC(C)/C=N\N=C(\N)N[N+](=O)[O-]`: the inhibition is inactive: -1%.

With `CN(C(=O)Cc1ccc(Cl)c(Cl)c1)[C@@H]1CCCC[C@H]1N1CCCC1`, the inhibition was inactive: -2%.

With `Clc1n[nH]nc1-c1nn[nH][15n]1`, the inhibition was inactive: -3%.

Turning to `O=P1(Nc2ccccn2)COc2ccccc2OC1`, the inhibition was inactive: 0%.

For `Cc1ccc(OCC(=O)OC2CN3CCC2CC3)cc1` (centres undefined), the inhibition was inactive: 2%.

As to `O=P1(Nc2ccc(Br)cn2)COc2ccccc2OC1`, the inhibition is inactive: -4%.

In the case of `O=P1(Nc2ncccn2)COc2ccccc2OC1`, the inhibition was inactive: 0%.

As to `CN(C)C1(CNC(=O)c2ccc(S(C)(=O)=O)cc2)CCCCC1`, the inhibition was inactive: -3%.

On to `Cc1nn(-c2ccccc2)c2c1P(=O)(N1CCOCC1)N(C)C(c1ccccc1)=N2` (centres undefined), for which the inhibition was inactive: 1%.

With `CC1CCC(C(C)C)C(OP(=O)(Nc2ccccn2)c2ccccc2)C1` (centres undefined), the inhibition is inactive: 0%.

As for `O=[N+]([O-])c1ccc2c(c1)nnn2O`, the inhibition is inactive: -3%.

On to `CCOP1(=S)c2c(C)nn(CCC#N)c2N=C(c2ccc(F)cc2)N1C` (centres undefined), for which the inhibition is inactive: -3%.

`CCOP1(=S)c2c(C)nn(CCC#N)c2N=C(c2ccccc2F)N1C` (centres undefined): the inhibition is inactive: -1%.

Regarding `O=P(Nc1nccs1)(Oc1ccccc1)Oc1ccccc1`, the inhibition is inactive: 0%.

With `O=P(Nc1nccs1)(c1ccccc1)c1nc2ccccc2s1` (centres undefined), the inhibition is inactive: 0%.

`COc1cc(C2NCCC3(OCCO3)C2(C)C)cc(OC)c1OC` (centres undefined): the inhibition is inactive: 3%.

Turning to `CCOP(=O)(Nc1cccc2ccccc12)OCC`, the inhibition is inactive: -4%.

In the case of `Cc1ccc(NCCc2c([N+](=O)[O-])cc([N+](=O)[O-])cc2[N+](=O)[O-])cc1`, the inhibition was inactive: -2%.

`Cc1cccc(OCC(=O)OC2CN3CCC2CC3)c1` (centres undefined): the inhibition was inactive: 10%.

On to `COc1cc(C(=O)NCC2(N3CCOCC3)CCCCC2)cc(Cl)c1OC(C)C`, for which the inhibition was inactive: -3%.

In the case of `CC(=O)Nc1ccc(Oc2c([N+](=O)[O-])cc([N+](=O)[O-])cc2[N+](=O)[O-])cc1`, the inhibition is inactive: 3%.

For the molecule `CC(C)(C)C(=O)NC(Sc1ccccc1)C(Cl)(Cl)Cl` (centres undefined), the inhibition was inactive: 0%.

Turning to `O=P1(Nc2nc3ccc(Cl)cc3s2)COc2ccccc2O1` (centres undefined), the inhibition is inactive: 0%.

On to `CCOc1ccc(C2=NCC(CBr)S2)cc1` (centres undefined), for which the inhibition was inactive: 0%.

Turning to `O=c1c2cc([N+](=O)[O-])ccc2[nH]c2c([N+](=O)[O-])cc([N+](=O)[O-])cc12`, the inhibition was inactive: -1%.

Regarding `COC(=O)c1cc2c(s1)N=C(c1ccccc1)N(C)P2(=O)N1CCOCC1` (centres undefined), the inhibition is inactive: 1%.

With `CC(=O)NC(SC(=S)N(CC(C)C)CC(C)C)C(Cl)(Cl)Cl` (centres undefined), the inhibition is inactive: -1%.

`Cc1ccc(OP(=O)(Nc2ccccn2)Oc2ccc(C)cc2)cc1`: the inhibition is inactive: -1%.

Take `CCC(=O)N1C2C3N(C(=O)CC)C1C1N(C(=O)CC)C(C(N1C(=O)CC)N3C(=O)CC)N2C(=O)CC`: the inhibition was inactive: 9%.

With `CCNC(=S)/N=C(\N)N[N+](=O)[O-]`, the inhibition is inactive: 0%.

As for `O=C(NC1CCS(=O)(=O)C1)NP(=S)(Oc1ccccc1)Oc1ccccc1` (centres undefined), the inhibition was inactive: -1%.

With `c1ccc(-c2nn[nH]n2)c(-c2nn[nH]n2)c1`, the inhibition is inactive: 12%.

Consider `CCOC(=O)NC(Sc1ccccc1)C(Cl)(Cl)Cl` (centres undefined), for which the inhibition was inactive: -5%.

In the case of `C(Cc1nn[nH]n1)Cc1nn[nH]n1`, the inhibition is inactive: -3%.

Turning to `O=C(OC1CN2CCC1CC2)c1cccc(Cl)c1` (centres undefined), the inhibition is inactive: 0%.

For the molecule `CC(=O)NC(SC(=S)N(C)C)C(Cl)(Cl)Cl` (centres undefined), the inhibition was inactive: -5%.

Regarding `O=P(Nc1ccccn1)(c1ccc(Br)cc1)c1ccc(Br)cc1`, the inhibition was inactive: 0%.

Consider `c1nnnn1CCn1cnnn1`, for which the inhibition was inactive: 0%.

Turning to `CC(C)C(=O)NC(Sc1ccccc1)C(Cl)(Cl)Cl` (centres undefined), the inhibition was inactive: -6%.

Regarding `O=P(Nc1nccs1)(c1ccccc1)c1ccccc1`, the inhibition is inactive: 0%.

Regarding `CC(C)=N/N=C(\N)N[N+](=O)[O-]`, the inhibition is inactive: -3%.

Turning to `CN(C)C(=O)OCCc1n(C)cc[n+]1C`, the inhibition is inactive: -5%.

With `CC1CCN(C(=O)Oc2c(Cl)cc(Cl)c3cccnc23)CC1`, the inhibition is inactive: -3%.

Consider `CCN(/C(=N/P(=O)(N1CCOCC1)N1CCOCC1)N1CCOCC1)c1ccc(OC)cc1`, for which the inhibition was inactive: 0%.

In the case of `O=[N+]([O-])c1cccc2n[nH]nc12`, the inhibition was inactive: 5%.

Turning to `CC(=O)N1C2C3N(C(C)=O)C1C1N(C(C)=O)C(C(N1C(C)=O)N3C(C)=O)N2C(C)=O`, the inhibition was inactive: 0%.

In the case of `Cc1ccc(NP(=O)(Oc2ccccc2)Oc2ccccc2)nc1`, the inhibition is inactive: 1%.

Consider `CCc1nc2c(n1)c1c(non1O)c1c2no[n+]1[O-]`, for which the inhibition was inactive: 34%.

Consider `O=[N+]([O-])c1cc([N+](=O)[O-])c(CCNc2ccccc2)c([N+](=O)[O-])c1`, for which the inhibition is inactive: 4%.

In the case of `COc1ccc(C2=NCC(CBr)S2)cc1` (centres undefined), the inhibition is inactive: 0%.

Turning to `O=[N+]([O-])c1ncn(CCn2ncnc2[N+](=O)[O-])n1`, the inhibition is inactive: 0%.

As to `CCN(N=Nc1nonc1N)c1nonc1N`, the inhibition is inactive: -5%.

Turning to `Cc1cc(SC(NC(=O)c2ccc(F)cc2)C(Cl)(Cl)Cl)ncn1` (centres undefined), the inhibition was inactive: -6%.

On to `CCOP(=O)(Nc1ccccc1)OCC`, for which the inhibition is inactive: 1%.

In the case of `CC(C)CC(=O)NC(Sc1ccc(Cl)cc1)C(Cl)(Cl)Cl` (centres undefined), the inhibition was inactive: 7%.

`Oc1ccccc1CNc1ccccn1`: the inhibition is inactive: -2%.

Take `O=C(NC(Sc1ccncn1)C(Cl)(Cl)Cl)c1ccccc1` (centres undefined): the inhibition was inactive: -5%.

With `Cc1c2non([O-])c-2c(C)[n+](=O)[n+]1[O-]`, the inhibition is inactive: 1%.

On to `COc1ccccc1OP(=O)(Nc1ccc(C)cn1)Oc1ccccc1OC`, for which the inhibition was inactive: 1%.

Turning to `CN1CCCC(OC(=O)C(c2ccccc2)c2ccccc2)C1` (centres undefined), the inhibition is inactive: -2%.

For `Clc1ccc(Cl)c(NC2=NCC(CBr)S2)c1` (centres undefined), the inhibition was inactive: -1%.

Turning to `NC(=O)c1cc([N+](=O)[O-])cc([N+](=O)[O-])c1N`, the inhibition was inactive: 0%.

Consider `Cc1ccc(N/C(=N/P(=O)(N2CCOCC2)N2CCOCC2)N2CCOCC2)cc1`, for which the inhibition was inactive: -1%.
